Data on two compounds can be found in PMC2850566 (Biochemical pharmacology, 2010).

Read-outs that look alike come from different tables or passages of the source.

For assay [1], the target named is T1, human β2-AR (Homo sapiens, UniProt P07550). As to the kind of experiment: van't Hoff analysis of binding thermodynamics. Conditions: for Quadrant in the TΔS° and ΔH° plot: classification after Borea et al.; for Intercept of van't Hoff relation / Slope of van't Hoff relation: linear regression, 4-37°C; for Intercept of van't Hoff relation / Slope of van't Hoff relation / ΔH° / ΔS°: ± SE.

The target of assay [2] is T1, human β2-AR. Conditions: for Hill's coefficient (n): ± SD; for Hill coefficients: all binding experiments, 4-37°C.

As for `C[C@@H](Cc1ccc(O)cc1)NC[C@H](O)c1cc(O)cc(O)c1` [(R,S')-fenoterol], at human β2-AR [1], the “Quadrant in the TΔS° and ΔH° plot” value is “purely entropy controlled process”; the “Intercept of van't Hoff relation” value was 16.03 ± 0.68; the “Slope of van't Hoff relation” value was −856 ± 201; the “ΔH°” value amounted to 1.7 ± 0.406 kcal/mol. Besides, the “ΔS°” value on human β2-AR [1] is listed as 0.133 ± 0.006 kJ/mol/K. For the same compound, the “Hill's coefficient (n)” value on human β2-AR [2] (4°C) worked out at 1.05 ± 0.18. Also, the “Hill's coefficient (n)” value at human β2-AR [2] (15°C) was 1.08 ± 0.19. Further, the “Hill's coefficient (n)” value at human β2-AR [2] (25°C) came to 1.12 ± 0.11. Further, the “Hill's coefficient (n)” value on human β2-AR [2] (30°C) was found to be 1.16 ± 0.04. Besides, on human β2-AR [2] (37°C), the “Hill's coefficient (n)” value stood at 1.21 ± 0.14. Moreover, the Hill coefficients on human β2-AR [2] is given as roughly 1.0.

Consider `C[C@H](Cc1ccc(O)cc1)NC[C@@H](O)c1cc(O)cc(O)c1` [(S,R')-fenoterol], for which, on human β2-AR [1], the “Quadrant in the TΔS° and ΔH° plot” value is listed as “enthalpy-entropy driven process”; the “Intercept of van't Hoff relation” value turned out to be 3.25 ± 1.59; the “Slope of van't Hoff relation” value is recorded as 2768 ± 469; the “ΔH°” value is -5.5 ± 0.932 kcal/mol. Moreover, on human β2-AR [1], the “ΔS°” value is listed as 0.027 ± 0.013 kJ/mol/K. Further, the “Hill's coefficient (n)” value on human β2-AR [2] (4°C) is on record as 1.62 ± 0.38. Besides, the “Hill's coefficient (n)” value on human β2-AR [2] (15°C) came to 1.95 ± 0.04. Besides, the “Hill's coefficient (n)” value on human β2-AR [2] (25°C) was 1.63 ± 0.24. Besides, the “Hill's coefficient (n)” value at human β2-AR [2] (30°C) worked out at 1.57 ± 0.31. Besides, the “Hill's coefficient (n)” value on human β2-AR [2] (37°C) came out at 1.63 ± 0.25. For the same compound, the Hill coefficients result at human β2-AR [2] is “greater than 1.0”.
